# Columns and labels:
# [1] = Permanent wave evaluation of waving lotions on hair tresses (waving efficiency); settings: amine 0.75M with 13.2 wt. % (0.8M) GMT, pH 7.5; 37° C. for 20 minutes
# Text: The pH was adjusted using a 10 wt. % HCl solution. Tresses were rolled onto mandrels and evaluated using the permanent wave evaluation procedure that follows. Procedure for Permanent Wave Evaluation […] 1. A bundle of 16 inch long medium virgin brown hair was secured with beeswax by dipping approximately 2 inches of the root end of the bundled hair into melted wax for 5 seconds. When the wax is cool to the touch, it is shaped into a square and allowed to harden. 2. Hair is broken into smaller bundles, washed with a 10 wt. % sodium lauryl sulfate solution and then rinsed. 3. Hair is sectioned into tresses of 45 hairs and the waxed end is re-waxed to further secure the tress. The wax is allowed to dry, and a piece of tape is wrapped around it to provide a writing surface. […] 4. An 8 cm long, 1.25 cm diameter spiral rod with 25 turns is used. The waxed end of the hair is secured between the 9th and 10th turns using a rubber band. […] 5. A piece of tape, width 2.5 cm, is wrapped sideways around the bottom edge of the hair, covering the bottom 2.5 cm. […] Waving Efficiency After the procedure, the lengths of the tresses were measured in a water bath. […] The curl is measured from the end of the wax to the end of the curl. [formula] where Li=initial length of tress from wax end to tip Lo=length of tress when wrapped on the rod Lt=length of permed hair from wax end to tip, measured in the water
# [2] = cited from earlier work
structure (smiles),measurement,setting,value
"NC(CO)(CO)CO [Tris, tris(hydroxymethyl)amino methane]",Percent Waving Efficiency,[1],47.0%
same,pKa,[2],about 8.06

# From patent US6426065B1, “Use of tris(hydroxymethyl)aminomethane in cold permanent waving processes” (Clairol Incorporated, priority 2000, dated 2002)
